# Results from patent publication US20070129307A1, “Insulin epitopes for the treatment of type 1 diabetes” (The University of British Columbia, priority 2001, published 2007).
# Tested on: HLA-A2 restricted CD8+ T cells (PBMC)
# Details: for proportion of responsive T1D subjects / proportion of responsive T1D subjects (number) / IFN-γ secretion by PBMC of control subjects: first study; for proportion of responsive T1D subjects / proportion of responsive T1D subjects (number) / recent-onset T1D patients with responses / recent-onset T1D patients with responses (number): HLA-A*0201 recent-onset T1D patients; for proportion of responsive T1D subjects (number): cut-off 12 spots/2×10^5 cells; for IFN-γ secretion by PBMC of control subjects: non-HLA-A*0201 recent-onset T1D and HLA-A*0201 non-diabetic subjects; for recent-onset T1D patients with responses / recent-onset T1D patients with responses (number): second study
Sequence,proportion of responsive T1D subjects [%],proportion of responsive T1D subjects (number),IFN-γ secretion by PBMC of control subjects,recent-onset T1D patients with responses [%],recent-onset T1D patients with responses (number)
FLWSVFMLI [IGRP152],42,8 of 19,none of the control subjects,–,–
SLSPLQAEL [IA-2(172)],–,–,–,18,2 of 11
HLVEALYLV [InsulinB10],–,–,–,18,2 of 11
SLAAGVKLL [IA-2(482)],–,–,–,27,3 of 11
FLIVLSVAL (IAPP precursor peptide - type 1 diabetes immunodominant epitope) [IAPP9],37,7 of 19,none of the control subjects,–,–
FLFAVGFYL [IGRP215],68,13 of 19,none of the control subjects,–,–
